Experimental data: patent publication US8975281B2, “Neosaxitoxin combination formulations for prolonged local anesthesia” (dated 2015)

Assays:
sciatic nerve [1] = details: 0.3 ml of bupivacaine 2.5 mg/ml; cutoffs 7 s thermal latency, 40 g EPT; cited from earlier work
sciatic nerve [2] = assay: Rat sciatic nerve blockade, hotplate testing (thermal sensory-nocifensive)
sciatic nerve [3] = assay: Rat sciatic nerve blockade, extensor postural thrust (motor-proprioceptive)
[4] = bupivacaine alone, n = 20, median (IQR)

CCCCN1CCCCC1C(=O)Nc1c(C)cccc1C (centres unmarked)
Animals with complete block in previous studies (sciatic nerve [1]): > 98%
Median time to 100% recovery, hotplate testing (sciatic nerve [2]; 0.25% bupivacaine alone): 2.2 h
Time to 50% recovery of injected limb, Hotplate (sciatic nerve [2]; [4]): 1.5 (1.49-2.13) hours
Median time to 100% recovery, EPT testing (sciatic nerve [3]; 0.25% bupivacaine alone): 2.2 h
Time to 50% recovery of injected limb, Extensor Postural Thrust (sciatic nerve [3]; [4]): 2.01 (1.51-2.39) hours
